{"source": "patent US20250127740A1", "about": "“COMPOSITION CONTAINING 3-HYDROXYANTHRANILIC ACID AND COMPOUNDS THAT ALTER IRON HOMEOSTASIS AND METHOD OF ITS USE” (priority 2021, published 2025)", "system": "C. elegans", "format": "in vivo", "details": "added to culture medium of haao-1 knockout worms (elevated endogenous 3HAA)", "protocol": "To determine if 3HAA in combination with DFO or FAC have any toxic effects to an animal, DFO was added to culture medium of haao-1 knockout worms, which have elevated endogenous 3HAA. We chose this approach because adding 3HAA and DFO or FAC to the growth media would impact bacterial growth, which can itself impact worm survival. Using the haao-1 knockout strain exposes the animals, but not their bacterial food source, to 3HAA.", "data": [{"substance": "ferric ammonium citrate [FAC]", "values": [{"measurement": "toxicity to C. elegans relative to wild type animals", "value": "neither the combination of DFO and elevated 3HAA (haao-1) nor the combination of FAC with elevated 3HAA (haao-1) were toxic"}]}]}
